According to ChEMBL document CHEMBL1141075, “4-Oxo-4,7-dihydrothieno[2,3-b]pyridines as non-nucleoside inhibitors of human cytomegalovirus and related herpesvirus polymerases” (J Med Chem, 2005):

Target: T1, DNA polymerase catalytic subunit (Varicella-zoster virus (strain Dumas) (HHV-3) (Human herpesvirus 3), UniProt P09252)
T1 sequence (P09252 whole entry): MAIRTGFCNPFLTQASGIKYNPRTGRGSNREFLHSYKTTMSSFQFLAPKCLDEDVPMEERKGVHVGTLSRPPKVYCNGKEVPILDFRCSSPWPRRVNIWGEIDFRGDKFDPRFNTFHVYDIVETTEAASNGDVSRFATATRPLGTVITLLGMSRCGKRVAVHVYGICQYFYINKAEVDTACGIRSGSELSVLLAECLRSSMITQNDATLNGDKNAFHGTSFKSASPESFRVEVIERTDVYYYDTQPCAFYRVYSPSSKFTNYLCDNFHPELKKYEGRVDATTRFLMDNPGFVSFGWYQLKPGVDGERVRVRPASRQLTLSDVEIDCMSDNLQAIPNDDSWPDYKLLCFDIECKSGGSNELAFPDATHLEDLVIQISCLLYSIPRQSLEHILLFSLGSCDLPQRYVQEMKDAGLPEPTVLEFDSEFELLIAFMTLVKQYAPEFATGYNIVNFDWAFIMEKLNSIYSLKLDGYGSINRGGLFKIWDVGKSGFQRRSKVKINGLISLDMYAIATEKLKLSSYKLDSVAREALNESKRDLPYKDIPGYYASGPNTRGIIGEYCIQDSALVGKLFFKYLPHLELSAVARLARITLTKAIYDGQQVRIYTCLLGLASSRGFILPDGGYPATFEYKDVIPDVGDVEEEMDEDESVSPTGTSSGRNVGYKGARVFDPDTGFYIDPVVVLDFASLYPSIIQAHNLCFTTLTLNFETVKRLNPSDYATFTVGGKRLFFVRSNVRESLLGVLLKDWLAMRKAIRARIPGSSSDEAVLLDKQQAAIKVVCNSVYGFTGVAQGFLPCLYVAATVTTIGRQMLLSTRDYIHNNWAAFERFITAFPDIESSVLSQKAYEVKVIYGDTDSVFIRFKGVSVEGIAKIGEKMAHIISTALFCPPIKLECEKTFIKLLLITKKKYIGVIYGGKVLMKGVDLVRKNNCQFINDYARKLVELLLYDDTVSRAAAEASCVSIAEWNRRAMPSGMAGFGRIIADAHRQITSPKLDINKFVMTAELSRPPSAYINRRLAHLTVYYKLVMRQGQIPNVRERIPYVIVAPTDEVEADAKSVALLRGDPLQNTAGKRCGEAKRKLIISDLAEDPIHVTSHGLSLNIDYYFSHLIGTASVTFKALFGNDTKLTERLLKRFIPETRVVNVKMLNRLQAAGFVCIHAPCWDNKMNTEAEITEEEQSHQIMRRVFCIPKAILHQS
Test: Inhibition of Varicella-Zoster virus DNA polymerase (95 uL) activity in a solution containing […] HEPES (pH 7.5), incubation for 12 minutes at 26 degrees C; [nd = not determined]
Design: species or system Human alphaherpesvirus 3

## O=C(O)P(=O)(O)O [FOSCARNET]
  IC50: < 280 nM
